Here are results for one compound from patent publication US11753399B2, “Therapeutic compounds” (Gilead Sciences, Inc., priority 2018, dated 2023).

Some results are limits rather than exact numbers.

A short description of this data set: Test B: Cytotoxicity Assay (same protocol as Test A, uninfected cells). Conditions: human, uninfected MT-4 cells, CellTiter-Glo. The class given is cell-based. Here is the method:
MT-4 cells were next mixed with HIV-IIIb at a multiplicity of infection (m.o.i.) of 0.003 for 1 hour, after which time 35 μL of virus/cell mixture (2000 cells) was immediately added to each well containing 40 μL of diluted compound. The plates were then incubated at 37° C. for 5 days. After 5 days of incubation, 25 μl of 2× concentrated CellTiter-Glo Reagent (catalog #G7571, Promega Biosciences, Inc., Madison, Wis.) was added to each well containing MT-4 cells. Cell lysis was carried out by incubating at room temperature for 10 min and then chemiluminescence was read. […] Compound cytotoxicity and the corresponding CC50 values was determined using the same protocol as described in the antiviral assay (Test A) except that uninfected cells were used.

As to `Cn1nc(NS(C)(=O)=O)c2c(Cl)ccc(-c3ccc(C#CC(C)(C)S(=O)(=O)C4CC4)nc3[C@H](Cc3cc(F)cc(F)c3)NC(=O)Cn3nc(C(F)F)c4c3C(F)(F)[C@@H]3C[C@H]43)c21` [Example 4], the CC50 (as a rule, the concentration that lowers cell viability or growth by half) at 5 days was over 44.1 µM.
